These results are taken from PubChem BioAssay AID1259421 (Broad Institute, 2018).

The entries are a selection whose mix differs from that of the whole data set. Activity calls are given as the source filed them. No stated cut-off is given here; in the data, active means activity change below about -70%; inconclusive means no clear call, values can overlap the other calls; inactive means above that.

The nature of the assay: T. gondii ME49Luc in HeLa cells, luciferase assay, 72 h, no IFN-y (AID 1259421). Conditions: hits give low values, concentration not given here.
Take `OCCSCCO`: the activity change, negative = inhibition was inactive: 11.9%.
